Assay results reported in ChEMBL document CHEMBL1131534, “Human P2Y1 receptor: molecular modeling and site-directed mutagenesis as tools to identify agonist and antagonist recognition sites” (J Med Chem, 1998).

Chains of the proteins cited; added tags and fusions are not shown.
UniProt P47900, whole entry Y136A: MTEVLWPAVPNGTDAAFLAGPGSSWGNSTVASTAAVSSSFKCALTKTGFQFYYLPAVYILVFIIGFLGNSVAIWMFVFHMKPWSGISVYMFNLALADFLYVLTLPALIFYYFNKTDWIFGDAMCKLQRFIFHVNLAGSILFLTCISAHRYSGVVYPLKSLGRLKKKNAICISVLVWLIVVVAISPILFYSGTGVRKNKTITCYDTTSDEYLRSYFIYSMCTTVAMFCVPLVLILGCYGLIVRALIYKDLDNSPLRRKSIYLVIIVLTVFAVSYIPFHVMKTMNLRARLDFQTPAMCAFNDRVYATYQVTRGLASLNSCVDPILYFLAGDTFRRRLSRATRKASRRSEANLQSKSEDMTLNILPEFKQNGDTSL
UniProt P47900, whole entry T221A: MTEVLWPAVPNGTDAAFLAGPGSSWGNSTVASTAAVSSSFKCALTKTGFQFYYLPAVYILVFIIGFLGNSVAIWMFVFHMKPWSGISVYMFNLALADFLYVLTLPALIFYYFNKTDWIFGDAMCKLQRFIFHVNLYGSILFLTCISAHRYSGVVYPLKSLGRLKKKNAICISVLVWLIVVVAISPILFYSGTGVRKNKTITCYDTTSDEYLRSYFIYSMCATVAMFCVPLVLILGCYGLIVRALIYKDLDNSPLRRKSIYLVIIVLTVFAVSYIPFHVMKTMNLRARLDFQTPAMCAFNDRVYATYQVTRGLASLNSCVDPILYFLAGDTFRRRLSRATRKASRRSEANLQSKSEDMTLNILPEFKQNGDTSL
UniProt P47900, whole entry H132A: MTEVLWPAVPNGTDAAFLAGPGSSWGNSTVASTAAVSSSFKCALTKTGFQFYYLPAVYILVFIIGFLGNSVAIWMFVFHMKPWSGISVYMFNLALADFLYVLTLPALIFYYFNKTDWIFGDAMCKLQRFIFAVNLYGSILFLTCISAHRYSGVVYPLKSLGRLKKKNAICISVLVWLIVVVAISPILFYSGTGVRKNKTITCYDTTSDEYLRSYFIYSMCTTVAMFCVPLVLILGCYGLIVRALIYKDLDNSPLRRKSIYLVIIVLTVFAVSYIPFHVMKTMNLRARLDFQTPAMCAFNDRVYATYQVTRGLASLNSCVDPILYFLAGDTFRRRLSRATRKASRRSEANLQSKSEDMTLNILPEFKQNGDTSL
UniProt P47900, whole entry S314T: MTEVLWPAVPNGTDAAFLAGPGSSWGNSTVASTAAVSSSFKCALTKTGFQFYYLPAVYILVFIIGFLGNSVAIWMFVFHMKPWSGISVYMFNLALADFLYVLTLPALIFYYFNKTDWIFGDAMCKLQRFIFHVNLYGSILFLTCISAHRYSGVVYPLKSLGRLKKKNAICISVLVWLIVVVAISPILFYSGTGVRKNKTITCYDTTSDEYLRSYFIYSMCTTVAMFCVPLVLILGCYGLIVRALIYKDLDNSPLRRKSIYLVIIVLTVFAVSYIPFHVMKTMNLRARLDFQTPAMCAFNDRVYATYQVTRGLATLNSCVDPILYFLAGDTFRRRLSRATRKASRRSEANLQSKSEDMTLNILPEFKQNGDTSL
UniProt P47900, whole entry T222A: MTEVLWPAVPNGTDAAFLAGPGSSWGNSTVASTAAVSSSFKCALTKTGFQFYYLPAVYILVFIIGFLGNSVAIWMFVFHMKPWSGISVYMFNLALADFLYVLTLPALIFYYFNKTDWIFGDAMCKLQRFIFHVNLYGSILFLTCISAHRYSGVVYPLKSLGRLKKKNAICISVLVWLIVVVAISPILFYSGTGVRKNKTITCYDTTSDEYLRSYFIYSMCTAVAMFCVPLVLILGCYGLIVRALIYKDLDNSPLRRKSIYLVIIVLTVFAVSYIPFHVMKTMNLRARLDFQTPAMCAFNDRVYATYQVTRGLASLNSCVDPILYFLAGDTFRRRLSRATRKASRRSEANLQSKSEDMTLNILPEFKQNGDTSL
UniProt P47900, whole entry S317A: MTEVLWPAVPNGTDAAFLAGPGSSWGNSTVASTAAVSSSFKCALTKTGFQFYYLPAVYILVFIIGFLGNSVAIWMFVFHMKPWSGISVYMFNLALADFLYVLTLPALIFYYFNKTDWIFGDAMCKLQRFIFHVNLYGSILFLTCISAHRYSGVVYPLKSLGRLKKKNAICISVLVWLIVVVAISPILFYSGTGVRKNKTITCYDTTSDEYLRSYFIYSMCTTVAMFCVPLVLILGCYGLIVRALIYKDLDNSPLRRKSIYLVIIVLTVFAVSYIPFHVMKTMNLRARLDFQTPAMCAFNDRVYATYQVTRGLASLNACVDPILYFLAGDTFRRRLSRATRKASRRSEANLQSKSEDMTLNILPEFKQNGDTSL
UniProt P47900, whole entry H277A: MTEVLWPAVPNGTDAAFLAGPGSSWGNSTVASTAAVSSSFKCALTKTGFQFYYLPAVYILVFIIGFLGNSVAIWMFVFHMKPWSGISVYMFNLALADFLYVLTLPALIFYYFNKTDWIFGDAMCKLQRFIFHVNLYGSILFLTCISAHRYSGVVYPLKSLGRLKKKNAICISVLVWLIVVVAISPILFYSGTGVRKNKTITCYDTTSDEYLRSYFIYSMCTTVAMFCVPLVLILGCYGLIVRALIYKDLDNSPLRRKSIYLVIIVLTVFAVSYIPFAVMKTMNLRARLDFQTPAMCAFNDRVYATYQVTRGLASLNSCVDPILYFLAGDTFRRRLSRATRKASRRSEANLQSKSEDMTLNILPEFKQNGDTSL
UniProt P47900, whole entry R310K: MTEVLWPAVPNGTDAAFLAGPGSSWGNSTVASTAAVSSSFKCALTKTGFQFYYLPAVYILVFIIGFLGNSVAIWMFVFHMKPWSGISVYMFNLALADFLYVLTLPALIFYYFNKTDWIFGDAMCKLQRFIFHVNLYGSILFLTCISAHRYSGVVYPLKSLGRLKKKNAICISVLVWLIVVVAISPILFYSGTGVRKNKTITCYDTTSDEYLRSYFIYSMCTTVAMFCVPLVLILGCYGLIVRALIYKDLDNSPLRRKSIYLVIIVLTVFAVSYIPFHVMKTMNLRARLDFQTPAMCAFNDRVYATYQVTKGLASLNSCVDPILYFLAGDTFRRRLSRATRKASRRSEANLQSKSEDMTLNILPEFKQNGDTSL
UniProt P47900, whole entry F226A: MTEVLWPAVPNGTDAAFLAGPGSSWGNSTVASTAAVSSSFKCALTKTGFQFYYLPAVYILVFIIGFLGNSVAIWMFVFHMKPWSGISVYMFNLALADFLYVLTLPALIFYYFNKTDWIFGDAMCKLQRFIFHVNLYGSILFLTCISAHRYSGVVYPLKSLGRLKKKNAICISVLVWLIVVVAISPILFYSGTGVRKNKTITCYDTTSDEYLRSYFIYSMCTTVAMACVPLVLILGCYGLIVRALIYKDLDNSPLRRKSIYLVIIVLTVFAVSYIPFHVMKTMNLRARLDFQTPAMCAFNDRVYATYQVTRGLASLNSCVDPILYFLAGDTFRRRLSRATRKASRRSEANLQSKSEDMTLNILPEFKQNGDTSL
UniProt P47900, whole entry Q307A: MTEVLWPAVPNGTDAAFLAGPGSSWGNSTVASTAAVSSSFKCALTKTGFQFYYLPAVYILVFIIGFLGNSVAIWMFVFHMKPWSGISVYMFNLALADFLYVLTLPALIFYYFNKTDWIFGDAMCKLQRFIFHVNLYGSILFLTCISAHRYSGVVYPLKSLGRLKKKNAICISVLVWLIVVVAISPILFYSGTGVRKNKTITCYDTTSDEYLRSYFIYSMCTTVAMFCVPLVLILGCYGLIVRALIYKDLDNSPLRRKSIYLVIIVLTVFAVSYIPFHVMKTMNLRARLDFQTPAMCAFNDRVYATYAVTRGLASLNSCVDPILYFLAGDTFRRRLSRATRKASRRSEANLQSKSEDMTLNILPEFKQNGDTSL
UniProt P47900, whole entry F131A: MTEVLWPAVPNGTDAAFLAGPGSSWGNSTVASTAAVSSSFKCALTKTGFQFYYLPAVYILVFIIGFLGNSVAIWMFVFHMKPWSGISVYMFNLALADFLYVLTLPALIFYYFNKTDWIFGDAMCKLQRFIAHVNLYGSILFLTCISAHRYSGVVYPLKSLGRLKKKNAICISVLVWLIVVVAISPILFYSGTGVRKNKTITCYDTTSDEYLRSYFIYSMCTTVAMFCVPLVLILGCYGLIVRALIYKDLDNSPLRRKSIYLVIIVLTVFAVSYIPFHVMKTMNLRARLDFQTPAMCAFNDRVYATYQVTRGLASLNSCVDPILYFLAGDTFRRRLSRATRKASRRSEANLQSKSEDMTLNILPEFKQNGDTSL
UniProt P47900, whole entry K280A: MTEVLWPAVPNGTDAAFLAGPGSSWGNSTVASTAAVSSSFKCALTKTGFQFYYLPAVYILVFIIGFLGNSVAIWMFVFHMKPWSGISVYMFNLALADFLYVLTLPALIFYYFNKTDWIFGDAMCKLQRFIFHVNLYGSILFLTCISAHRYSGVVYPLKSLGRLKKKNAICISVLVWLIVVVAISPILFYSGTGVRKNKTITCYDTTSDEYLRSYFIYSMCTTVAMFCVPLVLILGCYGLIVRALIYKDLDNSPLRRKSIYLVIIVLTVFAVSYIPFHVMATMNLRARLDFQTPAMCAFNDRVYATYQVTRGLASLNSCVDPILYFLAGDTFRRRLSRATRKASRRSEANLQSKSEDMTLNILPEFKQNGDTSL

Assays:
Type in all cases: functional
P2Y purinoceptor 1 [1] = target: T1, P2Y purinoceptor 1 (Homo sapiens, UniProt P47900, Y136A); experiment: Compound was measured for the antagonism of the activation of phospholipase C in mutant(Y136A) human P2Y1 receptor.
P2Y purinoceptor 1 [2] = target: T1, P2Y purinoceptor 1; experiment: Compound was measured for the antagonism of the activation of phospholipase C in mutant(Y136A) human P2Y1 receptor in presence of MRS2179 (P<0.005)
P2Y purinoceptor 1 [3] = target: T2, P2Y purinoceptor 1 (Homo sapiens, UniProt P47900, T221A); experiment: Compound was measured for the antagonism of the activation of phospholipase C in mutant(T221A) human P2Y1 receptor in presence of MRS2179 (P<0.005)
P2Y purinoceptor 1 [4] = target: T3, P2Y purinoceptor 1 (Homo sapiens, UniProt P47900, H132A); experiment: Compound was measured for the antagonism of the activation of phospholipase C in mutant(H132A) human P2Y1 receptor in presence of MRS2179 (P<0.005)
P2Y purinoceptor 1 [5] = target: T4, P2Y purinoceptor 1 (Homo sapiens, UniProt P47900, S314T); experiment: Compound was measured for the antagonism of the activation of phospholipase C in mutant(S314T) human P2Y1 receptor.
P2Y purinoceptor 1 [6] = target: T5, P2Y purinoceptor 1 (Homo sapiens, UniProt P47900, T222A); experiment: Compound was measured for the antagonism of the activation of phospholipase C in mutant(T222A) human P2Y1 receptor.
P2Y purinoceptor 1 [7] = target: T6, P2Y purinoceptor 1 (Homo sapiens, UniProt P47900, S317A); experiment: Compound was measured for the antagonism of the activation of phospholipase C in mutant(S317A) human P2Y1 receptor in presence of MRS2179
P2Y purinoceptor 1 [8] = target: T7, P2Y purinoceptor 1 (Homo sapiens, UniProt P47900); experiment: Compound was measured for the antagonism of the activation of phospholipase C in mutant(WT) human P2Y1 receptor.
P2Y purinoceptor 1 [9] = target: T4, P2Y purinoceptor 1; experiment: Compound was measured for the antagonism of the activation of phospholipase C in mutant(S314T) human P2Y1 receptor in presence of MRS2179
P2Y purinoceptor 1 [10] = target: T8, P2Y purinoceptor 1 (Homo sapiens, UniProt P47900, H277A); experiment: Compound was measured for the antagonism of the activation of phospholipase C in mutant(H277A) human P2Y1 receptor.
P2Y purinoceptor 1 [11] = target: T9, P2Y purinoceptor 1 (Homo sapiens, UniProt P47900, R310K); experiment: Compound was measured for the antagonism of the activation of phospholipase C in mutant(R310K) human P2Y1 receptor.
P2Y purinoceptor 1 [12] = target: T10, P2Y purinoceptor 1 (Homo sapiens, UniProt P47900, F226A); experiment: Compound was measured for the antagonism of the activation of phospholipase C in mutant(F226A) human P2Y1 receptor in presence of MRS2179.
P2Y purinoceptor 1 [13] = target: T5, P2Y purinoceptor 1; experiment: Compound was measured for the antagonism of the activation of phospholipase C in mutant(T222A) human P2Y1 receptor in presence of MRS2179 (P<0.005)
P2Y purinoceptor 1 [14] = target: T2, P2Y purinoceptor 1; experiment: Compound was measured for the antagonism of the activation of phospholipase C in mutant(T221A) human P2Y1 receptor.
P2Y purinoceptor 1 [15] = target: T11, P2Y purinoceptor 1 (Homo sapiens, UniProt P47900, Q307A); experiment: Compound was measured for the antagonism of the activation of phospholipase C in mutant(Q307A) human P2Y1 receptor.
P2Y purinoceptor 1 [16] = target: P2Y purinoceptor 1 (Homo sapiens, UniProt P47900, F131A); experiment: Compound was measured for the antagonism of the activation of phospholipase C in mutant(F131A) human P2Y1 receptor.
P2Y purinoceptor 1 [17] = target: T7, P2Y purinoceptor 1; experiment: Compound was measured for the antagonism of the activation of phospholipase C in mutant(WT) human P2Y1 receptor in presence of MRS2179 (P<0.005)
P2Y purinoceptor 1 [18] = target: T8, P2Y purinoceptor 1; experiment: Compound was measured for the antagonism of the activation of phospholipase C in mutant(H277A) human P2Y1 receptor in presence of MRS2179
P2Y purinoceptor 1 [19] = target: T10, P2Y purinoceptor 1; experiment: Compound was measured for the antagonism of the activation of phospholipase C in mutant(F226A) human P2Y1 receptor.
P2Y purinoceptor 1 [20] = target: T12, P2Y purinoceptor 1 (Homo sapiens, UniProt P47900, K280A); experiment: Compound was measured for the antagonism of the activation of phospholipase C in mutant(K280A) human P2Y1 receptor in presence of MRS2179
P2Y purinoceptor 1 [21] = target: T11, P2Y purinoceptor 1; experiment: Compound was measured for the antagonism of the activation of phospholipase C in mutant(Q307A) human P2Y1 receptor in presence of MRS2179
P2Y purinoceptor 1 [22] = target: T9, P2Y purinoceptor 1; experiment: Compound was measured for the antagonism of the activation of phospholipase C in mutant(R310K) human P2Y1 receptor in presence of MRS2179
P2Y purinoceptor 1 [23] = target: T3, P2Y purinoceptor 1; experiment: Compound was measured for the antagonism of the activation of phospholipase C in mutant(H132A) human P2Y1 receptor.
P2Y purinoceptor 1 [24] = target: T6, P2Y purinoceptor 1; experiment: Compound was measured for the antagonism of the activation of phospholipase C in mutant(S317A) human P2Y1 receptor.
P2Y purinoceptor 1 [25] = target: T12, P2Y purinoceptor 1; experiment: Compound was measured for the antagonism of the activation of phospholipase C in mutant(K280A) human P2Y1 receptor.

Q: Which EC50 (P2Y purinoceptor 1 [1]) does the source give for `CSc1nc(N)c2ncn([C@@H]3O[C@H](COP(=O)(O)OP(=O)(O)O)[C@@H](O)[C@H]3O)c2n1` here?
A: 0.0123 µM

Q: And the EC50 (P2Y purinoceptor 1 [2])?
A: 0.036 µM

Q: And the EC50 (P2Y purinoceptor 1 [3])?
A: 0.0124 µM

Q: What about the EC50 (P2Y purinoceptor 1 [4]) of the same compound?
A: 0.053 µM

Q: And the EC50 (P2Y purinoceptor 1 [5])?
A: 0.0104 µM

Q: What about the EC50 (P2Y purinoceptor 1 [6]) of the same compound?
A: 0.0109 µM

Q: What about the EC50 (P2Y purinoceptor 1 [7]) of the same compound?
A: 0.0121 µM

Q: And the EC50 (P2Y purinoceptor 1 [8])?
A: 0.00194 µM

Q: And the EC50 (P2Y purinoceptor 1 [9])?
A: 0.0309 µM

Q: And the EC50 (P2Y purinoceptor 1 [10])?
A: 0.115 µM

Q: What about the EC50 (P2Y purinoceptor 1 [11]) of the same compound?
A: 0.324 µM

Q: And the EC50 (P2Y purinoceptor 1 [12])?
A: 0.027 µM

Q: What about the EC50 (P2Y purinoceptor 1 [13]) of the same compound?
A: 0.025 µM

Q: What about the EC50 (P2Y purinoceptor 1 [14]) of the same compound?
A: 0.00245 µM

Q: And the EC50 (P2Y purinoceptor 1 [15])?
A: 0.323 µM

Q: And the EC50 (P2Y purinoceptor 1 [16])?
A: 0.0192 µM

Q: And the EC50 (P2Y purinoceptor 1 [17])?
A: 0.0129 µM

Q: What about the EC50 (P2Y purinoceptor 1 [18]) of the same compound?
A: 0.738 µM

Q: What about the EC50 (P2Y purinoceptor 1 [19]) of the same compound?
A: 0.0195 µM

Q: And the EC50 (P2Y purinoceptor 1 [20])?
A: 1.58 µM

Q: What about the EC50 (P2Y purinoceptor 1 [21]) of the same compound?
A: 0.378 µM

Q: What about the EC50 (P2Y purinoceptor 1 [22]) of the same compound?
A: 2.27 µM

Q: What about the EC50 (P2Y purinoceptor 1 [23]) of the same compound?
A: 0.0177 µM

Q: What about the EC50 (P2Y purinoceptor 1 [24]) of the same compound?
A: 0.00188 µM

Q: And the EC50 (P2Y purinoceptor 1 [25])?
A: 1.52 µM
